Assay results published in ChEMBL document CHEMBL4673405, “Novel Linker Variants of Antileishmanial/Antitubercular 7-Substituted 2-Nitroimidazooxazines Offer Enhanced Solubility” (ACS Med Chem Lett, 2021).

Test system: Leishmania infantum
Test: Antileishmanial activity against Leishmania infantum MHOM/MA(BE)/67 amastigotes infected in mouse peritoneal macrophages incubated for 5 days by Giemsa staining based assay
Assay type: functional, organism-based
Conditions: MHOM/MA(BE)/67, Peritoneal macrophage, 120 h

**Q.** For `O=[N+]([O-])c1cn2c(n1)OC(COc1ccc(OC(F)(F)F)cc1)CC2` (stereo unspecified), which IC50 is on record?
**A.** 47 nM
